Experimental findings from publication PMC8938454, “RUFY3 links Arl8b and JIP4-Dynein complex to regulate lysosome size and positioning” (Nature Communications, 2022) are described below.

For the assay, the target named is T1, His-Arl8b (recombinant) (human, UniProt Q9NVJ2 1-186).
T1 construct: also called purified His-Arl8b; source: E. coli BL21, purified (His60 Ni Superflow resin)
T1 sequence (looked up): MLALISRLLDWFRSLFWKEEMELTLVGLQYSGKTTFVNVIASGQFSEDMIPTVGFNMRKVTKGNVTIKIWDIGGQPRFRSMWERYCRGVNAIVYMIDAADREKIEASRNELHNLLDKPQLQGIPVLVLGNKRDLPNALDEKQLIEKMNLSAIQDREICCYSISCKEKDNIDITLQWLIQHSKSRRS
Description: pull-down; 5 µg GST or GST-tagged RUFY3 proteins on glutathione beads, blocked with 5% BSA, incubated with 5 µg purified His-Arl8b at 4 °C for 1 h in TAP lysis buffer; blot with anti-His. The settings on record: both partners purified.

B1: GST-tagged-RUFY3 (441–561) (domain or fragment, human, UniProt Q7L099-3 441-561, looked up)
chain: KQLEQRLRQAERSRQSAELDNRLFKQDFGDKINSLQLEVEELTRQRNQLELELKQEKERRLQNDRSIPGRGSQKSESKMDGKHKMQEENVKLKKPLEESHRLQPHPMDEQDQLLLSEKPQL
notes: source: E. coli BL21, purified (glutathione resin)
With B1, the binding result was “binds”.
